Where “and” joins values, the source holds several entries; their conditions need not be identical. Equal entries are not always repeated. The list shows a part of the results, in another mix than the full data. Records with an inconclusive call do not appear. Calls of active or inactive are those of the source. Unless noted, calls come from the whole dose curve; as a rule, active = well fitted curve in the direction sought with a large enough effect in the repeat runs; inconclusive = weak or mixed curves; inactive = no such curve, though single readings can be large; an effect the other way counts as inactive or inconclusive.

The chains behind the UniProt entries cited, without tags or fusion partners. Where a name states a change or a piece, a line headed by the entry shows the natural chain unless it says otherwise.
UniProt P10275: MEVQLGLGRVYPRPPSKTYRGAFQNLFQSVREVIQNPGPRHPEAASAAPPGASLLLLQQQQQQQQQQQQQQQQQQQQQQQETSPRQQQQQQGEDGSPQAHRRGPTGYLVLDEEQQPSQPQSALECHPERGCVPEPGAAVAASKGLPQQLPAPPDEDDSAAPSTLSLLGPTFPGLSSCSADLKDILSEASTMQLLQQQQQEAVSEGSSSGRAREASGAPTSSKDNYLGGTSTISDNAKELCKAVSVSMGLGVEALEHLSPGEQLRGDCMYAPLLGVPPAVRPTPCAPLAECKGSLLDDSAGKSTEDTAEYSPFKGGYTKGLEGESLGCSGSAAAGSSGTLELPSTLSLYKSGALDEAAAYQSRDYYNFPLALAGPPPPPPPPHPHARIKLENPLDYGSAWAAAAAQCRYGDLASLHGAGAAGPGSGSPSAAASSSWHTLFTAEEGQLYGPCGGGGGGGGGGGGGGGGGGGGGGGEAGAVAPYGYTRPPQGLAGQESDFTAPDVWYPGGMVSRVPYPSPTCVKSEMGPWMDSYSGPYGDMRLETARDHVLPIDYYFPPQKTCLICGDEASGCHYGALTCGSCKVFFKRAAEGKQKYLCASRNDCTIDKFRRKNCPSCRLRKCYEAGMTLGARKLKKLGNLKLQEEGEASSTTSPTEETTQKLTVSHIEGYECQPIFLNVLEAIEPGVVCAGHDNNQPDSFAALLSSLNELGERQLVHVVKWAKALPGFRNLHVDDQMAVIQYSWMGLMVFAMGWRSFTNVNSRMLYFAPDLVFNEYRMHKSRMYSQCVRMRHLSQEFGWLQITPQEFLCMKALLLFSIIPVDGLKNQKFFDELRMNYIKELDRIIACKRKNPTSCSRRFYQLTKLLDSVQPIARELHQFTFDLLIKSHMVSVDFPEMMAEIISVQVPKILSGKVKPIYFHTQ
UniProt Q92731, whole entry, looked up: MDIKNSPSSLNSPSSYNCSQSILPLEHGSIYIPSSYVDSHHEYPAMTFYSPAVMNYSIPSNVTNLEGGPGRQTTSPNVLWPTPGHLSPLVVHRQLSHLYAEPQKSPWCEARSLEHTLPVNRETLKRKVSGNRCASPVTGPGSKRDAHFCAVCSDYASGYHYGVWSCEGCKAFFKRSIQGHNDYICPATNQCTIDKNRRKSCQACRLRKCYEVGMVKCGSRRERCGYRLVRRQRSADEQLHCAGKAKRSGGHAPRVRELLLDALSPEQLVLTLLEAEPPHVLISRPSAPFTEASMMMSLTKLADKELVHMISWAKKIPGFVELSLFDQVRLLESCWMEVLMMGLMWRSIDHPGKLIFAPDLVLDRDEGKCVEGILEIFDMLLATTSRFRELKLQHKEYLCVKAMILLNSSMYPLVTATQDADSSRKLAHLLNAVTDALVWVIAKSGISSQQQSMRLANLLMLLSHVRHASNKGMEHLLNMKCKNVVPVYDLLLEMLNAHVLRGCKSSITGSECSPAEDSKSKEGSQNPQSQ
UniProt P16473, whole entry, looked up: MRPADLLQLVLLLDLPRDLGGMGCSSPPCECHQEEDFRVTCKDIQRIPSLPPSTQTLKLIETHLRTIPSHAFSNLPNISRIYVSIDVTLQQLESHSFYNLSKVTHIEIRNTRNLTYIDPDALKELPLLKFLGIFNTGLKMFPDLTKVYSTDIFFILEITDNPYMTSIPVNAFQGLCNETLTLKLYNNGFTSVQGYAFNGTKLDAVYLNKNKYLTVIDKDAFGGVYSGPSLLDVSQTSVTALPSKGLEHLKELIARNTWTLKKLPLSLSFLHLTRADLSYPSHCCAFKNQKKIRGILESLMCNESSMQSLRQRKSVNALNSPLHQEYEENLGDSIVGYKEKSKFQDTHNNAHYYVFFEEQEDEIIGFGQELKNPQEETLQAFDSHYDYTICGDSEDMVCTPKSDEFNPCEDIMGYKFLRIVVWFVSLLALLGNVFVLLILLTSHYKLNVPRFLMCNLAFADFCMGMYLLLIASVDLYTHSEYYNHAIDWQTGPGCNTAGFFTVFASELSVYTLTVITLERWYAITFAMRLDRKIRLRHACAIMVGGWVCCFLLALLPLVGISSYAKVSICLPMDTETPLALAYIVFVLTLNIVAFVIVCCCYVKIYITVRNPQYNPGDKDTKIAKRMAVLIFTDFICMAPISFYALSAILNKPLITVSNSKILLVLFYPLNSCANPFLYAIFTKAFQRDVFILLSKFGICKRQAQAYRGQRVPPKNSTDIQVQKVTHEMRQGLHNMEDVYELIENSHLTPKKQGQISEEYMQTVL
UniProt P03372, whole entry, looked up: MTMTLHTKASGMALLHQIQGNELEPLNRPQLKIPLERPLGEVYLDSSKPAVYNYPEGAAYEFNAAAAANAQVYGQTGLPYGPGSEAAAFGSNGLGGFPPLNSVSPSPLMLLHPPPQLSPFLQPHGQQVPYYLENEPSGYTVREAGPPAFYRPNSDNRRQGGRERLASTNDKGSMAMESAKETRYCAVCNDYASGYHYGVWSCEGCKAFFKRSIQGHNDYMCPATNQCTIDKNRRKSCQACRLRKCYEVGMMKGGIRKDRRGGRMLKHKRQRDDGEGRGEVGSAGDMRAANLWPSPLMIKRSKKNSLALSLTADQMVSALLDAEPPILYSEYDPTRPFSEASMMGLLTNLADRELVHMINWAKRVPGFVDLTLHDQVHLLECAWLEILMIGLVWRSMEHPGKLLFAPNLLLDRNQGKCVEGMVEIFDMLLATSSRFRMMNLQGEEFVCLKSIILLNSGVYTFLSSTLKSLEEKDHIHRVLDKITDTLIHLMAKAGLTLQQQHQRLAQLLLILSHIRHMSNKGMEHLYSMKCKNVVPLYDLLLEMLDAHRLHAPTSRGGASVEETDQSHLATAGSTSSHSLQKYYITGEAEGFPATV

Test [1] can be described thus: A CellTox Green Cytotoxicity Assay to monitor cytotoxicity in HepG2 cells - 32 hour (AID 1224883). Note: nearly all actives have a fitted effect of over 50% in size. An outline of the steps:
(§1)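 Cytotoxicity was tracked as dead-cell DNA fluorescence in HepG2 cells treated with test compounds at 37 C; each time-point value comes from one kinetic series spanning 0, 8, 16, 24, 32 and 40 h.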

A short description of test [2]: A CellTox Green Cytotoxicity Assay to monitor cytotoxicity in HEK293 cells - 8 hour (AID 1224884). Note: nearly all actives have a fitted effect of over 35% in size. An outline of the steps:
(§2)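 Real-time, in one plate: 600 HEK293 cells/well with dead-cell DNA dye, pinned compound after 5 h, 37 C incubation over 40 h; viable cells give no appreciable fluorescence.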

Test [3] can be described thus: qHTS RealTime-Glo MT Cell Viability Assay in HepG2 cells - 16 hour (AID 1224885). Note: nearly all actives have a fitted effect of over 50% in size. In a few lines: (§3)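 Compound treatment began 5 h after plating HepG2 cells (600/well) with NanoLuc luciferase and prosubstrate. Plates stayed at 37 C for 40 h; luminescence was captured at six time points, 0 h through 40 h.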
The nature of test [4]: qHTS RealTime-Glo MT Cell Viability Assay in HEK293 cells - 24 hour (AID 1224886). Note: top concentration of the series differs between compounds; nearly all actives have a fitted effect of over 50% in size. In a few lines:
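Quantitative high-throughput screen of the Tox21 10K library in HEK293: cells and RealTime-Glo reagents plated together, compound added at 5 h, luminescence monitored through 40 h at 37 C.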

Test [5] can be described thus: qHTS RealTime-Glo MT Cell Viability Assay in HEK293 cells - 8 hour (AID 1224887). Note: top concentration of the series differs between compounds; nearly all actives have a fitted effect of over 50% in size. In a few lines:
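Kinetic, non-lysing viability readout. Seed HEK293 (600/well) with reagent, incubate 5 h at 37 C/5% CO2, pin 23 nL compound in DMSO, incubate at 37 C, read luminescence at 0, 8, 16, 24, 32, 40 h.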

Test [6] can be described thus: A CellTox Green Cytotoxicity Assay to monitor cytotoxicity in HEK293 cells - 16 hour (AID 1224888). Note: nearly all actives have a fitted effect of over 35% in size. In a few lines:
as §2

Test [7] can be described thus: qHTS RealTime-Glo MT Cell Viability Assay in HepG2 cells - 0 hour (AID 1224889). Note: nearly all actives have a fitted effect of over 50% in size. The conditions noted are these: RealTime-Glo luminescence; at 76.8 µM (top of the series) unless noted. In a few lines: as §3
Test [8] is described as follows: A CellTox Green Cytotoxicity Assay to monitor cytotoxicity in HepG2 cells - 8 hour (AID 1224890). Note: nearly all actives have a fitted effect of over 45% in size. In a few lines:
as §1

Test [9] addresses Androgen receptor (Homo sapiens) (UniProt P10275). Briefly: qHTS assay to identify small molecule antagonists of the androgen receptor (AR) signaling pathway using the MDA cell line in the presence of 0.5 nM R1881 (AID 1259243). Note: nearly all actives have a fitted effect of over 50% in size.
Test [10] is described as follows: qHTS assay to identify small molecule HDAC inhibitors (AID 1259364).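 Note: wild-type HCT-116 cells with endogenous class I/II HDAC activity; top concentration of the series differs between compounds; nearly all actives have a fitted effect of over 45% in size.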 The note with it: HCT-116 HDAC-Glo I/II luminescence, 2 h; at 92.4 µM (top of the series) unless noted. An outline of the steps: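 HCT-116 wt cells, 1,500/well, overnight attach. Compounds (DMSO) 2 h, 37 °C. HDAC-Glo I/II, 30 min RT. Luminescence.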
Test [11] is described as follows: qHTS assay to identify small molecule agonists of the sonic hedgehog signaling (Shh) pathway - cell viability counter screen (AID 1259366). Note: nearly all actives have a fitted effect of over 50% in size. In a few lines:
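NIH/3T3-derived Gli1-Luc reporter cells, 2,000 per well, received compound after 4 h and were treated about 23 h at 37C. Viability measured in the same wells by CellTiter-Fluor fluorescence after 1 h.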

Test [12] in a line: qHTS assay to identify small molecule agonists of the sonic hedgehog signaling (Shh) pathway (AID 1259368; calls by dose curve;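 note: NIH/3T3-derived 3T3Gli1-Luc cells carrying a stable Gli1-driven firefly luciferase reporter; nearly all actives have a fitted effect of over 15% in size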). The note with it: NIH/3T3 Gli1-Luc reporter, luciferase, 24 h, hits give high values; at 92.4 µM (top of the series) unless noted. In a few lines: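 Following a 24 hr incubation with DMSO-dissolved compounds at 37 C, 5% CO2, Gli1-Luc NIH/3T3-derived cells received luciferase reagent for 30 min at room temperature prior to luminescence measurement.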

The target in test [13] is Estrogen receptor beta (Homo sapiens) (UniProt Q92731). Briefly: qHTS assay to identify small molecule antagonists of the estrogen receptor beta (ER-beta) signaling pathway (AID 1259378; active = well fitted inhibition curve with a large enough effect in the signal ratio in the repeat runs, not every such curve was filed as active; the % refers to the signal ratio). The conditions noted are these: ER-beta-UAS-bla HEK293T, beta-lactamase FRET ratio, 16 h; at 92.4 µM (top of the series). An outline of the steps:
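ER-beta-UAS-bla HEK293T cells in 2% charcoal-stripped FBS medium treated with compound plus 1nM final 17-beta-estradiol for 16 hr at 37C. Beta-lactamase reporter read by FRET substrate fluorescence after 2 hours at room temperature.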

A short description of test [14]: qHTS assay to identify small molecule agonists of the androgen receptor (AR) signaling pathway in the presence of an antagonist - cell viability counter screen (AID 1259379).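 For activity change, negative = cytotoxicity: MDA-kb2 human breast cancer cells carrying an MMTV luciferase reporter.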 Note: nearly all actives have a fitted effect of over 25% in size. Note: potency is the fitted concentration of half-maximal effect. In a few lines:
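Each compound was tested at 15 concentrations on MDA-kb2 cells in the presence of 3.0uM nilutamide. Viability was measured by CellTiter-Fluor fluorescence after a 16 hr incubation at 37C in a CO2-free atmosphere.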

The target in test [15] is Androgen receptor (Homo sapiens) (UniProt P10275). Briefly: qHTS assay to identify small molecule agonists of the androgen receptor (AR) signaling pathway in the presence of an antagonist (AID 1259381; calls by dose curve; note: nearly all actives have a fitted effect of over 15% in size). The conditions noted are these: MDA-kb2 MMTV-luciferase, AR agonist + nilutamide, 16 h; at 92.4 µM (top of the series).
The target of test [16] is Thyrotropin receptor (Homo sapiens) (UniProt P16473). Briefly: qHTS assay to identify small molecule antagonists of the thyroid stimulating hormone receptor (TSHR) signaling pathway (AID 1259385; calls by dose curve; note: nearly all actives have a fitted effect of over 20% in size). The conditions noted are these: TSHR-HEK293 cAMP HTRF, TSH-stimulated antagonist mode; at 92.4 µM (top of the series) unless noted.
In test [17] the target is Estrogen receptor (Homo sapiens) (UniProt P03372). Briefly: qHTS assay to identify small molecule antagonists of the estrogen receptor alpha (ER-alpha) signaling pathway using the BG1 cell line in the presence of 0.1 nM 17-beta-estradiol (AID 1259244). Note: nearly all actives have a fitted effect of over 50% in size. The note with it: VM7Luc4E2 (BG1) ERE-luciferase, antagonist mode, 0.1 nM E2, 22 h; at 92.4 µM (top of the series) unless noted.

Test [18] has the same target. Briefly: qHTS assay to identify small molecule agonists of the estrogen receptor alpha (ER-alpha) signaling pathway in the presence of an antagonist (AID 1259383; calls by dose curve; note: top concentration of the series differs between compounds; nearly all actives have a fitted effect of over 15% in size). The note with it: VM7Luc4E2 cells, ERE-luciferase, +ICI-182,780, 22 h; at 92.4 µM (top of the series) unless noted.
The nature of test [19]: qHTS assay to identify small molecule agonists or antagonists of the thyroid stimulating hormone receptor (TSHR) signaling pathway - wild type cell line counter screen (AID 1259384; calls by dose curve). The note with it: HEK293 wild type, cAMP HTRF counter-screen, hits give high values; at 92.4 µM (top of the series) unless noted. In a few lines:
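Wild-type Hek293 cells, 800/well, 18 h at 37C, then compound with Ro20-1724 for 30 min RT. cAMP by HTRF (cAMP-d2/anti-cAMP cryptate), 1 h RT, fluorescence read. 15 concentrations, triplicates.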

For test [20], the target named is Estrogen receptor beta (Homo sapiens) (UniProt Q92731). Briefly: qHTS assay to identify small molecule agonists of the estrogen receptor beta (ER-beta) signaling pathway (AID 1259377; active = well fitted activation curve with a large enough effect in the signal ratio in the repeat runs, not every such curve was filed as active; the % refers to the signal ratio). The note with it: ER-beta-UAS-bla HEK293T, beta-lactamase FRET ratio, 16 h; at 92.4 µM (top of the series) unless noted.
% is set by controls: 0 for no effect and ±100 for the full control effect.

`O=C(Cl)OCCOC(=O)Cl`: the Potency result in test [1], in test [2], in test [3], in [4], in [5] and in [6] was “inactive” each time. Moreover, the Potency result in [8], in test [9], in test [11] and in test [14] was “inactive” throughout. The activity change, negative = cytotoxicity in [7] is inactive: -6.39%. Also, the activity change, negative = inhibition was inactive: 0.559% in test [10] and inactive: 0.873% in test [16]. In addition, the activity change in test [12] is inactive: -0.375%. Further, the activity, negative = inhibition in test [13] was inactive: -18.2%. Also, the activation in test [15] was inactive: 0.0241%.
For `O=P(Cl)(Cl)c1ccccc1`, the Potency result in test [1], in [2], in test [3], in test [4], in [5] and in [6] was “inactive” each time. Moreover, the Potency result in [8], in [11] and in [14] was “inactive” throughout. For the same molecule, in [7], the activity change, negative = cytotoxicity was inactive: -3%. Further, the activity change, negative = inhibition in test [17] was inactive: 6.67%; in test [10], inactive: -5.19%; in test [16] it was inactive: 1.23%. Further, the activity change in [12] was inactive: 0.306%. In addition, in test [13], the activity, negative = inhibition was inactive: 20.1%. Moreover, the activation in test [18] was inactive: -0.0118%. Besides, the cAMP activity change in [19] was inactive: -0.71%.
As to `Cc1cc([N+](=O)[O-])c(O)c([N+](=O)[O-])c1`, the Potency result in test [1], in test [2], in test [3], in test [6], in test [8] and in test [9] was “inactive” each time. In addition, the activity change, negative = cytotoxicity in test [7] is inactive: -14.6%. Also, the activity change, negative = inhibition in test [10] was inactive: -2.24%; in [16], inactive: -0.0246%. Besides, the activity change in test [12] is inactive: -0.958%. The Potency in test [14] was active: 55 µM. For the same molecule, the values for the activation in test [15] and in test [18] were inactive: -3.99% and inactive: 0.847%, respectively. Also, the cAMP activity change in test [19] is inactive: 7.57%.
With `CCCCO[P+](=O)OCCCC`, the Potency entry in test [1], in [2], in test [3], in [4], in [5] and in [6] was “inactive” in each case. In addition, the Potency entry in test [8], in test [9], in test [11] and in [14] was “inactive” in each case. Also, the activity change, negative = cytotoxicity in test [7] was inactive: -0.906% and inactive: -1.89%. Further, the activity change, negative = inhibition in test [17] is inactive: -0.396% and inactive: 3.65%; in [10] it was inactive: 3.63% and inactive: 1.55%; in test [16], inactive: -0.882% and inactive: 0.235%. Further, in test [12], the activity change was inactive: -0.24% and inactive: -1.07%. The activation was inactive: -0.657% and inactive: -0.162% in [15]; inactive: -0.986% and inactive: -0.242% in [18]. Moreover, in test [19], the cAMP activity change was inactive: -0.212% and inactive: 4.73%.
As for `Cc1cc([N+](=O)[O-])cc([N+](=O)[O-])c1O`, the Potency entry in [2], in test [5] and in test [8] was “inactive” throughout. In test [7], the activity change, negative = cytotoxicity is inactive: -3.66% and inactive: -9.51%. Further, the activity change in [12] is inactive: -6.17% and inactive: -5.45%. For the same molecule, the activation in test [15] is inactive: -9.95% and inactive: -10.1%.
On to `CN(N=O)C(=N)N[N+](=O)[O-]`, for which the Potency result in test [1], in [2], in test [3], in test [5], in test [6] and in [8] was “inactive” throughout. Moreover, the Potency result in test [11] and in test [14] was “inactive” throughout. Also, in [7], the activity change, negative = cytotoxicity is inactive: 1.91%. Also, the activity change, negative = inhibition in test [10] is inactive: -8.65%. For the same molecule, the activity change in test [12] is inactive: 3.07%. Further, in [20], the activation is inactive: -0.825%. Further, the activity, negative = inhibition in [13] was inactive: 1.36%. In addition, the cAMP activity change in [19] is inactive: -1.72%.
`CCCCOP(OCCCC)OCCCC`: the Potency entry in [1], in test [2], in test [3], in test [4], in test [5] and in test [6] was “inactive” throughout. Further, the Potency result in [8], in [9], in test [11] and in test [14] was “inactive” in each case. The activity change, negative = cytotoxicity in test [7] was inactive: 3.47%. The activity change, negative = inhibition was inactive: 0.422% in [17], inactive: -2.64% in [10] and inactive: 1.74% in [16]. For the same molecule, the activity change in test [12] was inactive: -1.13%. Further, the activation in [20] was inactive: -3.12%; in test [15], inactive: 14.9%; in test [18], inactive: 0.31%. For the same molecule, in test [13], the activity, negative = inhibition is inactive: -1.17%. Moreover, the cAMP activity change in [19] is inactive: 0.108%.
In the case of `CCOP(=S)(CC)Sc1ccccc1` (configuration not stated), the Potency entry in test [1], in test [2], in test [3], in test [4], in test [5] and in [6] was “inactive” throughout. Moreover, the Potency entry in test [8], in [11] and in test [14] was “inactive” throughout. In addition, the activity change, negative = cytotoxicity in test [7] was inactive: -10.1%. In addition, the activity change, negative = inhibition in test [17] was inactive: -5.81%; in [10], inactive: -0.519%. The activity change in test [12] is inactive: 1.12%. For the same molecule, the activation in [20] is inactive: -2.86%; in [18] it was inactive: -3.88%. Further, the activity, negative = inhibition in [13] was inactive: -0.332%. For the same molecule, the cAMP activity change in test [19] is inactive: -6.27%.

The values above are taken from PubChem BioAssay (Tox21).
